Where a name gives a salt, the structure may show the parent alone.
Test system: B16 (melanoma) cells
Settings: mouse

Cl.Cl.Cl.NCCCCN(CCCCN)Cc1c2ccccc2cc2ccccc12 [Compound 8e, N-(4-Amino-butyl)-N-anthracen-9-ylmethyl-butane-1,4-diamine, trihydrochloride]
times more cytotoxic to melanoma B16 cells than normal melanocytes Mel-A: 7.5-10.5 fold

CCCCNCc1c2ccccc2cc2ccccc12 [Compound 35, N^1-Anthracen-9-ylmethyl-butylamine Monohydrochloride]
times more cytotoxic to melanoma B16 cells than normal melanocytes Mel-A: 0.7-2.3 fold
